Data taken from BindingDB's records for US9663465.

Sequences of proteins named here, by UniProt entry; tags and fusion partners are left off. A change or cut given only in a name is not applied to a line headed by its entry. Residues count along the entry.
UniProt P22303, 32-614 limits assumed: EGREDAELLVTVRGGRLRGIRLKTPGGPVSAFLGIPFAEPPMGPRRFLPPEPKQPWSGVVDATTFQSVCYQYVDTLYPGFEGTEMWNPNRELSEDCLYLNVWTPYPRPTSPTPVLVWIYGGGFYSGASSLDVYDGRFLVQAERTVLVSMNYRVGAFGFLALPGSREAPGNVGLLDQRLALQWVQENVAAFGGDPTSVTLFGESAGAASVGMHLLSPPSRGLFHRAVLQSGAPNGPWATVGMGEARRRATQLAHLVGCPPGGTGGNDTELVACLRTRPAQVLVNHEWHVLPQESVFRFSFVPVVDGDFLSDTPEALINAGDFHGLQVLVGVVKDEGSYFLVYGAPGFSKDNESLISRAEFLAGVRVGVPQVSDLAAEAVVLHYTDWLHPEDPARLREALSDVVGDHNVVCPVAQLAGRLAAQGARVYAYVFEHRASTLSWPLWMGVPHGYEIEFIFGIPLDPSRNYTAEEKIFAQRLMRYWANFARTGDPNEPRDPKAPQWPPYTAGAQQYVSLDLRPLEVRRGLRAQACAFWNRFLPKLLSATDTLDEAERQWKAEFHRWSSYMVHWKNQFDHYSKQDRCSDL
UniProt O70528: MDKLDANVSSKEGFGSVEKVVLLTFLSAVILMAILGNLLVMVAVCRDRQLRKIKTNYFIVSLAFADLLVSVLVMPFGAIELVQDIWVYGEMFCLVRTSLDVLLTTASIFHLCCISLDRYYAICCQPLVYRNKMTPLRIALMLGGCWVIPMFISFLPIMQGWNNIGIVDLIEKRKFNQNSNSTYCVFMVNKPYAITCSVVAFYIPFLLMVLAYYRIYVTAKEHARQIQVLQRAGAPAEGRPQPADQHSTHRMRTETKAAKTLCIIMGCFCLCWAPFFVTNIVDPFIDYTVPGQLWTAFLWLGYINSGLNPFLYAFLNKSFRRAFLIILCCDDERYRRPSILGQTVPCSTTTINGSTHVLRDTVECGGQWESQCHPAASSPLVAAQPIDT

Key:
Acetylcholinesterase = Acetylcholinesterase (Homo sapiens, UniProt P22303); assay: Inhibition Assay
[1] = biological target: 5-hydroxytryptamine receptor 4 (Cavia porcellus, UniProt O70528); assay: Competition Assay

For `CCCCN1CCC(CCC(=O)c2cc(Br)ccc2OC)CC1`, the IC50 (Acetylcholinesterase) was 445 nM and the Ki [1] was 8.9 nM.
